These are literature values, as cited in patent publication US5447869A, “Method of detecting bitter or odorous substances and apparatus therefor” (Sogo Pharmaceutical Company Limited, priority 1987, dated 1995).

Where two headings read alike, the source gives them in different places.

In this series the test system is tadpole. Particulars: cited from earlier work.

In the case of `CCCO` [1-propanol], the Potency is listed as 9.43 (Table 3, tadpole, intensity of the anesthetic) and 9.43 (Table 6, concentration ratio of aqueous solution, methanol as 1.00).
